What was measured:
[1] = target: Histone deacetylase 2 (Homo sapiens, UniProt Q92769)
[2] = target: Histone deacetylase 4 (Homo sapiens, UniProt P56524); experiment: IC50 Assay: IC50 measurements were conducted by BPS Biosciences (Table 1) or by Nanosyn (Table 1A) with an established fluorescence assay.

Sequences of proteins named here, by UniProt entry; tags and fusion partners are left off. A change or cut given only in a name is not applied to a line headed by its entry.
UniProt Q92769, whole entry: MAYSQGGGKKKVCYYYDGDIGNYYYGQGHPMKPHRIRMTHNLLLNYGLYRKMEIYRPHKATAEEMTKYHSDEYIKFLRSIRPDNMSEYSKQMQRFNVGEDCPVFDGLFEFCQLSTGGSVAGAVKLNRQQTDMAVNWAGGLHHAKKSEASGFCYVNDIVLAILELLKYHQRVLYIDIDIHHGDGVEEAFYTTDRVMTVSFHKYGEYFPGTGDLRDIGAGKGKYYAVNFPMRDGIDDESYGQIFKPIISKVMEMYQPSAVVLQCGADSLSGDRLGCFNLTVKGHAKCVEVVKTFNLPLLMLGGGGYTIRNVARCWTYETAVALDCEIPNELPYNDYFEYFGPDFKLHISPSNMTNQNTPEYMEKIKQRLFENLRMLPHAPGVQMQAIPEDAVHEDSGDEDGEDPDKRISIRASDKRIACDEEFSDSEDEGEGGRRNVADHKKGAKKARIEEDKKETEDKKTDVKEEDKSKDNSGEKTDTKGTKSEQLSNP
UniProt P56524: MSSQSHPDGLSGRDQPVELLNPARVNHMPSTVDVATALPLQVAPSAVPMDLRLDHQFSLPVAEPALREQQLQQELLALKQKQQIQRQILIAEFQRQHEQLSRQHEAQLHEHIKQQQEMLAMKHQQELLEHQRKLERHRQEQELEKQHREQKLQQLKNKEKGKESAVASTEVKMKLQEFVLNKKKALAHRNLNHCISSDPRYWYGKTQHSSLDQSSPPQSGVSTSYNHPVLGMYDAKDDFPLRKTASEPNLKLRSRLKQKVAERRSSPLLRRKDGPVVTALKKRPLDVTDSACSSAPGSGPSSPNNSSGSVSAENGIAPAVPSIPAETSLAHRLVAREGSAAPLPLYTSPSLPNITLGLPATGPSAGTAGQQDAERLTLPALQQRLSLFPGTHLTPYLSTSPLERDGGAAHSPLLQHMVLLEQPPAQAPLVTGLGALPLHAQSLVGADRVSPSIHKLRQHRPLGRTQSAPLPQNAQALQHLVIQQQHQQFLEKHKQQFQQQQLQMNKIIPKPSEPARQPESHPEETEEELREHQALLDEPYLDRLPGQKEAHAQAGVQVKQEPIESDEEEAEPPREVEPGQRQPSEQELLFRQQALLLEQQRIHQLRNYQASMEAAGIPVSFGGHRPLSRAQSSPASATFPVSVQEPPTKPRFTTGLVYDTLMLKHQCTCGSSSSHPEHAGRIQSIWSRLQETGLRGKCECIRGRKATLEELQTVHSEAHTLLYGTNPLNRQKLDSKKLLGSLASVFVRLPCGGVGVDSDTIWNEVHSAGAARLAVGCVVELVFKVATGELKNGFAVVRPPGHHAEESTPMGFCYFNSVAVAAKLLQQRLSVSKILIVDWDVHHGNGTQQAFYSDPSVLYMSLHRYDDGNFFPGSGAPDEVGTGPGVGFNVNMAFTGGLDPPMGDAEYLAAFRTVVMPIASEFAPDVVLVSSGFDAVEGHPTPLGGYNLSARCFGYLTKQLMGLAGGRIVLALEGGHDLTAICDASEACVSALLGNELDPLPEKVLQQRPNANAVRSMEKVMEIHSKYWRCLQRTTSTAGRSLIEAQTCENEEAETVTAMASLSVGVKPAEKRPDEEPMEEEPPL

Row | SMILES | IC50 [1] [nM] | IC50 [2] [nM]
1 | CN(Cc1ccc(/C=C/C(=O)NO)cc1F)CC12CC3CC(CC(C3)C1)C2 | 73 | –
2 | CN1CCc2c(c3ccccc3n2Cc2ccc(C(=O)NO)cc2)C1 [TUBASTATIN A] | – | > 30
